Measurements taken from US8257931B2 (President and Fellows of Harvard College, priority 2005, dated 2012).

System: A549 lung cancer cells
Experiment: A549 proliferation, sulforhodamine B (SRB) assay
Format: cell-based, human
Details: read-out: GI50 (SRB μM), Table 1, triplicate

GI50: 9 µM
Structure (SMILES): O=C(O)/C(Cc1ccccc1)=N/Nc1nnc(-c2ccccc2)s1
